Laboratory results from ChEMBL document CHEMBL5375979, “Chemical, Biochemical, Cellular, and Physiological Characterization of Leucettinib-21, a Down Syndrome and Alzheimer's Disease Drug Candidate” (J Med Chem, 2023).

Chains of the proteins cited; added tags and fusions are not shown. Lines headed by an entry give the natural chain unless they say otherwise; changes in a name come on top.
UniProt P49759: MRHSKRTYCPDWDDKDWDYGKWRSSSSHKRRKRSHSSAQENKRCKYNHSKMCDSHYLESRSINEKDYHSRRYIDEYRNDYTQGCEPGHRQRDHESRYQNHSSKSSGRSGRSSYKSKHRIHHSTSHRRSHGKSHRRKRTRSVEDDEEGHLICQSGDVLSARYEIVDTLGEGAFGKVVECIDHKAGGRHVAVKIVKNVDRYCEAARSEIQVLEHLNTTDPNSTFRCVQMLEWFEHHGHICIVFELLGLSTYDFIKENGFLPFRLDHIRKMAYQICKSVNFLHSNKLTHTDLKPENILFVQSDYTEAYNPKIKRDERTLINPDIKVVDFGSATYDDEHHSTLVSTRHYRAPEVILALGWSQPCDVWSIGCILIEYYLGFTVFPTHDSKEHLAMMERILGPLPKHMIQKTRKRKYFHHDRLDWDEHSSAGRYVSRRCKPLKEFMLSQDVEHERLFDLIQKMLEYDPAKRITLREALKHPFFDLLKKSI
UniProt P49760, whole entry: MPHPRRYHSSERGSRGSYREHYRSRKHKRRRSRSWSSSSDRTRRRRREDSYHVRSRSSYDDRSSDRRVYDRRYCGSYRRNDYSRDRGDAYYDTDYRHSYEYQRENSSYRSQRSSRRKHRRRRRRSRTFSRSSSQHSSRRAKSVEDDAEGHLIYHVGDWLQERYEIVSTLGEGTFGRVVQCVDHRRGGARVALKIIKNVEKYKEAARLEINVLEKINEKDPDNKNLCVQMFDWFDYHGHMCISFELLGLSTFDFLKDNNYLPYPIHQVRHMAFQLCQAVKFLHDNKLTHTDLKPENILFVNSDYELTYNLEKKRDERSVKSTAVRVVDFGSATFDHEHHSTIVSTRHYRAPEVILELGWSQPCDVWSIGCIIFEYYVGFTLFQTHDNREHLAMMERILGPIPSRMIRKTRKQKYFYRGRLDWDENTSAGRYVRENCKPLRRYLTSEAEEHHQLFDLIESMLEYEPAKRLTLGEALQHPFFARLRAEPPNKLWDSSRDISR

Tests used:
[1] = target: Dual specificity protein kinase CLK1 (Homo sapiens, UniProt P49759)
[2] = target: Dual specificity protein kinase CLK2 (Homo sapiens, UniProt P49760)
[3] = target: T1, Dual specificity tyrosine-phosphorylation-regulated kinase 3 (Homo sapiens, UniProt O43781)
T1 sequence (O43781 whole entry): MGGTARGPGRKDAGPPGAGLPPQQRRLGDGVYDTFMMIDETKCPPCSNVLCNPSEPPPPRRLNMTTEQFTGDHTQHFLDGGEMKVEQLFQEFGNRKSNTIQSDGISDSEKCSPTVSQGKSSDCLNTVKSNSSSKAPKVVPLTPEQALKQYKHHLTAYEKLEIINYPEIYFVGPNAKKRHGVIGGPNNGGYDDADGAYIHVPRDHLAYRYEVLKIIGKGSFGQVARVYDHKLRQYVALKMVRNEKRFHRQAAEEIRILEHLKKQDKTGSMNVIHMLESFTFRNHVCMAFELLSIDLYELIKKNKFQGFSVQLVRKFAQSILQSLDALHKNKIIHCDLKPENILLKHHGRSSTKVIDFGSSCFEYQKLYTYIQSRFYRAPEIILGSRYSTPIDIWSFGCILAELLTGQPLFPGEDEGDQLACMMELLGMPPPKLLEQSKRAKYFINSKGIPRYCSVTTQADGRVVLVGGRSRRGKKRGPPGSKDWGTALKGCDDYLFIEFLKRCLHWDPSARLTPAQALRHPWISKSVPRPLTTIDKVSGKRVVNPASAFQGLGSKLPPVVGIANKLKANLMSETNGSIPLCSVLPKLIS

IC50 [1]: 56.4 nM
IC50 [2]: 587 nM
IC50 [3]: 1850 nM
Compound: O=C1NC(Nc2ccccc2)=N/C1=C\c1ccc2c(c1)OCO2
